Assay results: PMC8146505, “Enantioselective Interactions of Anti-Infective 8-Aminoquinoline Therapeutics with Human Monoamine Oxidases A and B” (Pharmaceuticals, 2021)

The chains behind the UniProt entries cited, without tags or fusion partners.
UniProt P21397, whole entry: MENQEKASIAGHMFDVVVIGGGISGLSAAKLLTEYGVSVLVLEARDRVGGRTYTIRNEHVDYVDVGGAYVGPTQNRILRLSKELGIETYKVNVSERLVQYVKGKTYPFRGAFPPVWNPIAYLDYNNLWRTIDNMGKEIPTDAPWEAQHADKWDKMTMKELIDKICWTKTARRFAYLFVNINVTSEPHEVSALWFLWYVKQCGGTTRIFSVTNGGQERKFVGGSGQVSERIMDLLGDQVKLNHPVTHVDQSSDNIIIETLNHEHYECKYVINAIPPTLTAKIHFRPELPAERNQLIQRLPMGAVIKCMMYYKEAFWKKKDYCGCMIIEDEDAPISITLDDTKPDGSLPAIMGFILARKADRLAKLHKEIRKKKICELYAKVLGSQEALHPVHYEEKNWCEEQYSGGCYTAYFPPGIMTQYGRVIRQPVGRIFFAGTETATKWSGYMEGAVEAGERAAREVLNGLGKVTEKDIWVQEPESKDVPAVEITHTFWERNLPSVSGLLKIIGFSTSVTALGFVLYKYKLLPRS

Target: T1, recombinant human MAO-A (Homo sapiens, UniProt P21397)
T1 construct: purchased BD Biosciences (Bedford, MA, USA)
Assay: In vitro MAO inhibition assay (kynuramine oxidative deamination), IC50
Format: biochemical
Protocol: A fixed concentration of kynuramine substrate and varying concentrations of the test compounds were used to determine the IC50 values. Kynuramine concentrations for MAO-A and -B assays were 80 μM and 50 μM, respectively. The concentrations of PQ and NPC1161 enantiomers varied from 0.1 μM to 200 μM, for the rhMAO-A and -B enzyme activity inhibition. The test compounds were dissolved in DMSO, diluted in the buffer solution just before the assay, and pre-incubated with the enzyme (MAO-A (5 μg/mL) or -B (12.5 μg/mL)) for 10 min at 37 °C. […] The enzymatic reactions were initiated by the addition of the substrate (kynuramine 80 and 50 μM, for MAO-A and -B, respectively) and incubated for 20 min at 37 °C. […] The formation of 4-hydroxyquinoline (the enzyme reaction end product) was recorded fluorometrically on a SpectraMax M5 fluorescence plate reader (Molecular Devices, Sunnyvale, CA, USA) with 320 nm excitation and 380 nm emission wavelengths, using the Soft MaxPro-6 program. The inhibition of enzyme activity was calculated in terms of product formation as a percentage of corresponding controls (enzyme–substrate reaction without inhibitors). Assay controls, to define the interference of the test compounds with the fluorescence measurements, were set up simultaneously, and the enzyme or substrate was added after stopping the reaction. […]

COc1cc(NC(C)CCCN)c2ncccc2c1 (racemic) [(RS)-(±)-Primaquine, Primaquine]
Selectivity for inhibition of MAO-A versus MAO-B: 1.2 fold
